Measurements as given in patent US8497349B2, “Use of multivalent synthetic ligands of surface nucleolin for treating cancer or inflammation” (Centre National de la Recherche Scientifique (CNRS), priority 2006, dated 2013).

Tests used:
[1] = tested on: B16-BL6 mouse melanoma line; experiment: Anchorage-independent growth of B16-BL6 on wet agar (colony count); assay type: cell-based; conditions: 1 μM of HB-19; 10 days
Procedure: FIG. 7. Effect of anti-nucleolin (anti Nu) (A), and HB-19 (B) on B16-BL6 growth on wet agar. B16-BL6 cells are cultured in a culture medium with 0.35% agar on a 0.6% agar matrix. After 10 days in culture, colonies with a diameter greater than 50 μm were counted. 5 areas per well and each point in triplicate, (*p<0.05 and **p<0.01).
In parallel to these studies on cell proliferation, the role of nucleolin on anchorage-independent growth, the phenotype characteristic of transformed cells, was tested in a growth model on wet agar using the human mammary carcinoma line, MDA-MB-231, as well as a mouse melanoma line, B16-BL6.
In these experiments, cells were cultured on agar gel in the presence or absence of varying concentrations of the control anti-nucleolin antibodies, control immunoglobulins or compound HB-19. After 10 days of incubation at 37° C., the number of colonies present in each culture plate was counted.

[2] = tested on: MDA-MB231 tumours; experiment: Tumour growth in MDA-MB231 xenograft model in athymic mice; assay type: in vivo, athymic mice (nude/nude)
Procedure: FIG. 9. Effect of HB-19 on tumour growth in an MDA-MB231 xenograft model. Human mammary carcinoma MDA-MB231 cells were injected subcutaneously athymic mice (nude). When the tumour reached a volume of 200 mm^3, mice were treated by subcutaneous route as shown in graph in A. B. Observation and measurement of tumours in mice sacrificed at day 40. C. Tumour weight in mice sacrificed at day 40.
FIG. 10. Effect of HB-19 on tumour growth in an MDA-MB231 xenograft model. Changes in tumour growth. Intraperitoneal (IP) or subcutaneous (SC) injections.
Groups of 4 athymic mice (nude/nude) were injected in the flank with 2×10^6 cells. When tumour volume reached at least 200 mm^3, mice were either treated or not by injection in the tumour (peritumoral or subcutaneous route) of 100 μl every two days of a PBS solution (control group) or HB-19 solution (5 mg/kg) or a commonly used clinical agent, tamoxifen (also called […], 10 mg/kg). Tumour size was measured on days 7, 14, 21, 28, 34 and 40 using a calliper.
In another experiment, HB19 (5 mg/kg) was administered by intraperitoneal route (IP) and peritumoral route (SC) (FIG. 10).

[3] = tested on: endothelial cells (CD31+, factor VIII+) in matrigel; experiment: In vivo angiogenesis model (matrigel plug assay); set-up: species or system mice; conditions: subcutaneous matrigel, one week
Procedure: FIG. 8. Effect of HB-19 on angiogenesis. A. Effect of HB19 tested on in vitro proliferation of HUVEC cells. 20000 HUVEC cells were cultured in wells and compound HB19 was added in different concentrations on each day. Cells were counted after 6 days of treatment. B. Effect of HB19 (1 μM) on the differentiation of HUVEC cells in a three-dimensional collagen gel cultured in the presence of HARP angiogenic factors (1 nM); VEGF (1 nM) and FGF-2 (3 nM) were also tested. After 4 days, tubular network structures were counted. The results are presented in arbitrary units. C. Effect of HB-19 on angiogenesis triggered HARP or FGF-2 in an in vivo angiogenesis model (/matrigel <<plug assay>>). Matrigel (300 μl) containing the indicated molecules is injected subcutaneously into mice. Mice were sacrificed after one week and matrigel was removed. 8 μm thick cuts were performed. After staining, the number of endothelial cells is estimated by image analysis. For each matrigel, 5 cuts and 4 mice were analysed per experimental point.
This experimental model of angiogenesis consists in subcutaneously injecting mice with matrigel containing the substance to be analysed for its angiogenesis stimulating or inhibiting properties. Matrigel was removed one week later, histological cuts were taken and the number of endothelial cells (CD31+, factor VIII+) was quantified by image analysis after immunohistochemistry.

[4] = tested on: IL-6; experiment: IL-6 production by human primary PBMC stimulated by heat-killed Staphylococcus aureus (ELISA); assay type: cell-based; conditions: 10 μM; 10^8 HKSA/ml particles; 20 hours
Procedure: FIG. 22. Inhibition by HB-19 of the production of TNF-α and IL-6 by primary human mononuclear peripheral blood cells (PBMC) stimulated by Staphylococcus aureus bacteria inactivated by heat (HKSA, <<heat-killed Staphylococcus aureus>>). PBMCs were isolated by centrifugation on a Ficoll density gradient using whole human blood EDTA-potassium and resuspended in RPMI 1640 containing 1% human serum AB (Invitrogen). Cells at a concentration of 10^6 cell/0.5 ml, in the absence (control) or presence (10 μM) of HB-19, Nucant 3, Nucant 6 or Nucant 7 or Dexamethasone (Dex. 1 μg/ml), were stimulated with 10^8 HKSA/ml particles (InvivoGen, San Diego, USA). PBMC cultures were incubated at 37° C. in an incubator with 5% CO2 and TNF-α (A) and IL-6 (B) levels were measured by ELISA in culture supernatants collected after 20 hours of incubation.
The inventors therefore measured TNF-α and IL-6 levels in human primary PBMC cultures in response to Staphylococcus aureus bacteria inactivated by heat (HKSA, <<heat-killed Staphylococcus aureus>>), in the absence (control) or presence of 10 μM of the compounds HB-19, Nucant 3, Nucant 6, or Nucant 7. As the positive control (Dex.), PBMC was also treated with dexamethasone which is a glucocorticosteroid with known anti-inflammatory and immunosuppressant activity. […]

In the case of `CCCC[C@H](NC(=O)[C@H](CCCCNC(=O)[C@H](CCCNC(=N)N)NC(=O)[C@@H]1CCCN1C[C@@H](N)CCCCN)NC(=O)[C@H](CCC(=O)O)NC(=O)[C@H](CCCCNC(=O)[C@H](CCCNC(=N)N)NC(=O)[C@@H]1CCCN1C[C@@H](N)CCCCN)NC(=O)[C@@H]1CCCN1C(=O)CNC(=O)[C@H](CCCCNC(=O)[C@H](CCCNC(=N)N)NC(=O)[C@@H]1CCCN1C[C@@H](N)CCCCN)NC(=O)[C@H](CCCCN)NC(=O)[C@H](CCCCNC(=O)[C@H](CCCNC(=N)N)NC(=O)[C@@H]1CCCN1C[C@@H](N)CCCCN)NC(=O)[C@H](CCCNC(=N)N)NC(=O)[C@@H]1CCCN1C[C@@H](N)CCCCN)C(N)=O` [HB19, 5[Kpsi(CH2N)PR]-TASP], the “inhibition of the number of clones” value [1] is reported as greater than 50%, the “anti-tumour action by intraperitoneal route (IP) versus peritumoral route (SC)” value ([2]; 5 mg/kg) is reported as “equally effective” and the “tumour size of untreated control mice relative to treated mice” value ([2]; 5 mg/kg every two days, peritumoral or subcutaneous) is reported as 7 ×. The “tumour detectability (volume)” value ([2]; HB-19 5 mg/kg, after 21 days of treatment) was “undetectable”, the “tumours removed at sacrifice” value ([2]; HB-19 5 mg/kg, after 40 days of treatment) was “no tumours were found” and the “anatomical examination of organs, blood formula, platelet count” value ([2]; end of the experiment) was “did not reveal any visible sign of tissue toxicity nor any change in blood formula or platelet count”. The “physiological or behavioural signs in treated mice” value ([2]; in the course of treatment) was “no abnormal physiological or behavioural sign was observed”, the “angiogenesis triggered by HARP or FGF-2” value [3] was “inhibits angiogenesis” and the “recruitment of endothelial cells in matrigel, compound alone” value ([3]; no angiogenic factor) was “no effect”. For the same compound, the “inhibition of IL-6 production” value [4] was “significant inhibition”.
